Measured values published in ChEMBL document CHEMBL4382216, “Asymmetric synthesis and biological evaluation of imidazole- and oxazole-containing synthetic lipoxin A4 mimetics (sLXms)” (Eur J Med Chem, 2019).

How the values were obtained:
[1] = molecular target: T1, N-formyl peptide receptor 2 (Homo sapiens) (UniProt P25090); experiment: Agonist activity at ALX/FPR2 in human THP1 cells harboring NF-kB-Luc assessed as inhibition of LPS-induced NFkB signalling activation by measuring NF-kB activation level at 10^-12 M pretreated for 30 mins followed by LPS stimulation for 24 hrs by luciferase reporter gene assay; assay type: cell-based; set-up: scale not given: the % may be the effect or the level left
T1 sequence (whole entry): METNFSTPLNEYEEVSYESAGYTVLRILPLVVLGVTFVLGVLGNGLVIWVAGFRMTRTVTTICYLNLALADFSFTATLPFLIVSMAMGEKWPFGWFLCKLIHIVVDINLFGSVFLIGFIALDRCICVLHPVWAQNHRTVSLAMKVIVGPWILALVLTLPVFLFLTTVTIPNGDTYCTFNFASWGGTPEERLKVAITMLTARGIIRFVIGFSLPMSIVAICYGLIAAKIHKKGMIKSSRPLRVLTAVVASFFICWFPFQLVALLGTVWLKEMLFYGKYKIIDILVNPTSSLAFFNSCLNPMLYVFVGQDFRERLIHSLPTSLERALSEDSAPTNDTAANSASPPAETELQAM

[2] = molecular target: T1, N-formyl peptide receptor 2 (Homo sapiens); experiment: Agonist activity at ALX/FPR2 in human THP1 cells harboring NF-kB-Luc assessed as inhibition of LPS-induced NFkB signalling activation by measuring IL-12p70 secretion at 10^-9 M pretreated for 30 mins followed by LPS stimulation for 24 hrs by electrochemiluminescence assay; assay type: cell-based; set-up: scale not given: the % may be the effect or the level left
[3] = molecular target: T1, N-formyl peptide receptor 2 (Homo sapiens); experiment: Agonist activity at ALX/FPR2 in human THP1 cells harboring NF-kB-Luc assessed as inhibition of LPS-induced NFkB signalling activation by measuring NF-kB activation level at 10^-10 M pretreated for 30 mins followed by LPS stimulation for 24 hrs by luciferase reporter gene assay; assay type: cell-based; set-up: scale not given: the % may be the effect or the level left
[4] = molecular target: T1, N-formyl peptide receptor 2 (Homo sapiens); experiment: Agonist activity at ALX/FPR2 in human THP1 cells harboring NF-kB-Luc assessed as inhibition of LPS-induced NFkB signalling activation by measuring NF-kB activation level at 10^-8 M pretreated for 30 mins followed by LPS stimulation for 24 hrs by luciferase reporter gene assay; assay type: cell-based; set-up: scale not given: the % may be the effect or the level left
[5] = molecular target: T1, N-formyl peptide receptor 2 (Homo sapiens); experiment: Agonist activity at ALX/FPR2 in human THP1 cells harboring NF-kB-Luc assessed as inhibition of LPS-induced NFkB signalling activation by measuring NF-kB activation level at 10^-9 M pretreated for 30 mins followed by LPS stimulation for 24 hrs by luciferase reporter gene assay; assay type: cell-based; set-up: scale not given: the % may be the effect or the level left
[6] = molecular target: T1, N-formyl peptide receptor 2 (Homo sapiens); experiment: Agonist activity at ALX/FPR2 in human THP1 cells harboring NF-kB-Luc assessed as inhibition of LPS-induced NFkB signalling activation by measuring IL-1beta secretion at 10^-9 M pretreated for 30 mins followed by LPS stimulation for 24 hrs by electrochemiluminescence assay; assay type: cell-based; set-up: scale not given: the % may be the effect or the level left
[7] = organism: Homo sapiens; experiment: Activation of Luc-fused NFkB (unknown origin) expressed in non-stimulated human THP1 cells assessed as relative luminescence unit at 10^-8 M after 24 hrs by luciferase reporter gene assay (reference value: 100%); assay type: cell-based
[8] = molecular target: T1, N-formyl peptide receptor 2 (Homo sapiens); experiment: Agonist activity at ALX/FPR2 in human THP1 cells harboring NF-kB-Luc assessed as inhibition of LPS-induced NFkB signalling activation by measuring TNFalpha secretion at 10^-9 M pretreated for 30 mins followed by LPS stimulation for 24 hrs by electrochemiluminescence assay; assay type: cell-based; set-up: scale not given: the % may be the effect or the level left
[9] = molecular target: T1, N-formyl peptide receptor 2 (Homo sapiens); experiment: Agonist activity at ALX/FPR2 in human THP1 cells harboring NF-kB-Luc assessed as inhibition of LPS-induced NFkB signalling activation by measuring NF-kB activation level at 10^-6 M pretreated for 30 mins followed by LPS stimulation for 24 hrs by luciferase reporter gene assay; assay type: cell-based; set-up: scale not given: the % may be the effect or the level left
[10] = molecular target: T1, N-formyl peptide receptor 2 (Homo sapiens); experiment: Agonist activity at ALX/FPR2 in human THP1 cells harboring NF-kB-Luc assessed as inhibition of LPS-induced NFkB signalling activation by measuring IL-6 secretion at 10^-7 M pretreated for 30 mins followed by LPS stimulation for 24 hrs by electrochemiluminescence assay; assay type: cell-based; set-up: scale not given: the % may be the effect or the level left
[11] = molecular target: T1, N-formyl peptide receptor 2 (Homo sapiens); experiment: Agonist activity at ALX/FPR2 in human THP1 cells harboring NF-kB-Luc assessed as inhibition of LPS-induced NFkB signalling activation by measuring NF-kB activation level at 10^-11 M pretreated for 30 mins followed by LPS stimulation for 24 hrs by luciferase reporter gene assay; assay type: cell-based; set-up: scale not given: the % may be the effect or the level left
[12] = molecular target: T1, N-formyl peptide receptor 2 (Homo sapiens); experiment: Agonist activity at ALX/FPR2 in human THP1 cells harboring NF-kB-Luc assessed as inhibition of LPS-induced NFkB signalling activation by measuring IFNgamma secretion at 10^-11 M pretreated for 30 mins followed by LPS stimulation for 24 hrs by electrochemiluminescence assay; assay type: cell-based; set-up: scale not given: the % may be the effect or the level left
[13] = molecular target: T1, N-formyl peptide receptor 2 (Homo sapiens); experiment: Agonist activity at ALX/FPR2 in human THP1 cells harboring NF-kB-Luc assessed as inhibition of LPS-induced NFkB signalling activation by measuring IL-6 secretion at 10^-11 M pretreated for 30 mins followed by LPS stimulation for 24 hrs by electrochemiluminescence assay; assay type: cell-based; set-up: scale not given: the % may be the effect or the level left
[14] = molecular target: T1, N-formyl peptide receptor 2 (Homo sapiens); experiment: Agonist activity at ALX/FPR2 in human THP1 cells harboring NF-kB-Luc assessed as inhibition of LPS-induced NFkB signalling activation by measuring IL-1beta secretion at 10^-11 M pretreated for 30 mins followed by LPS stimulation for 24 hrs by electrochemiluminescence assay; assay type: cell-based; set-up: scale not given: the % may be the effect or the level left
[15] = molecular target: T1, N-formyl peptide receptor 2 (Homo sapiens); experiment: Agonist activity at ALX/FPR2 in human THP1 cells harboring NF-kB-Luc assessed as inhibition of LPS-induced NFkB signalling activation by measuring IL-12p70 secretion at 10^-7 M pretreated for 30 mins followed by LPS stimulation for 24 hrs by electrochemiluminescence assay; assay type: cell-based; set-up: scale not given: the % may be the effect or the level left
[16] = molecular target: T1, N-formyl peptide receptor 2 (Homo sapiens); experiment: Agonist activity at ALX/FPR2 in human THP1 cells harboring NF-kB-Luc assessed as inhibition of LPS-induced NFkB signalling activation by measuring NF-kB activation level at 10^-7 M pretreated for 30 mins followed by LPS stimulation for 24 hrs by luciferase reporter gene assay; assay type: cell-based; set-up: scale not given: the % may be the effect or the level left
[17] = molecular target: T1, N-formyl peptide receptor 2 (Homo sapiens); experiment: Agonist activity at ALX/FPR2 in human THP1 cells harboring NF-kB-Luc assessed as inhibition of LPS-induced NFkB signalling activation by measuring IL-6 secretion at 10^-9 M pretreated for 30 mins followed by LPS stimulation for 24 hrs by electrochemiluminescence assay; assay type: cell-based; set-up: scale not given: the % may be the effect or the level left
[18] = molecular target: T1, N-formyl peptide receptor 2 (Homo sapiens); experiment: Agonist activity at ALX/FPR2 in human THP1 cells harboring NF-kB-Luc assessed as inhibition of LPS-induced NFkB signalling activation by measuring IL-1beta secretion at 10^-7 M pretreated for 30 mins followed by LPS stimulation for 24 hrs by electrochemiluminescence assay; assay type: cell-based; set-up: scale not given: the % may be the effect or the level left
[19] = molecular target: T1, N-formyl peptide receptor 2 (Homo sapiens); experiment: Agonist activity at ALX/FPR2 in human THP1 cells harboring NF-kB-Luc assessed as inhibition of LPS-induced NFkB signalling activation by measuring IL-12p70 secretion at 10^-11 M pretreated for 30 mins followed by LPS stimulation for 24 hrs by electrochemiluminescence assay; assay type: cell-based; set-up: scale not given: the % may be the effect or the level left
[20] = molecular target: T1, N-formyl peptide receptor 2 (Homo sapiens); experiment: Agonist activity at ALX/FPR2 in human THP1 cells harboring NF-kB-Luc assessed as inhibition of LPS-induced NFkB signalling activation by measuring IFNgamma secretion at 10^-9 M pretreated for 30 mins followed by LPS stimulation for 24 hrs by electrochemiluminescence assay; assay type: cell-based; set-up: scale not given: the % may be the effect or the level left
[21] = molecular target: T1, N-formyl peptide receptor 2 (Homo sapiens); experiment: Agonist activity at ALX/FPR2 in human THP1 cells harboring NF-kB-Luc assessed as inhibition of LPS-induced NFkB signalling activation by measuring TNFalpha secretion at 10^-7 M pretreated for 30 mins followed by LPS stimulation for 24 hrs by electrochemiluminescence assay; assay type: cell-based; set-up: scale not given: the % may be the effect or the level left
[22] = molecular target: T1, N-formyl peptide receptor 2 (Homo sapiens); experiment: Agonist activity at ALX/FPR2 in human THP1 cells harboring NF-kB-Luc assessed as inhibition of LPS-induced NFkB signalling activation by measuring TNFalpha secretion at 10^-11 M pretreated for 30 mins followed by LPS stimulation for 24 hrs by electrochemiluminescence assay; assay type: cell-based; set-up: scale not given: the % may be the effect or the level left
[23] = molecular target: T1, N-formyl peptide receptor 2 (Homo sapiens); experiment: Agonist activity at ALX/FPR2 in human THP1 cells harboring NF-kB-Luc assessed as inhibition of LPS-induced NFkB signalling activation by measuring IFNgamma secretion at 10^-7 M pretreated for 30 mins followed by LPS stimulation for 24 hrs by electrochemiluminescence assay; assay type: cell-based; set-up: scale not given: the % may be the effect or the level left
[24] = molecular target: T1, N-formyl peptide receptor 2 (Homo sapiens); experiment: Agonist activity at ALX/FPR2 (unknown origin) expressed in HEK293 cells co-expressing Galphaq assessed as induction of intracellular calcium accumulation at 0.01 nM to 100 nM by Fluo-4 dye based fluorescence spectrophotometric assay; assay type: functional, cell-based

Compound	Activity [1] [%]	Activity [2] [%]	Activity [3] [%]	Activity [4] [%]	Activity [5] [%]	Activity [6] [%]	Activity [8] [%]	Activity [9] [%]	Activity [10] [%]	Activity [11] [%]	Activity [12] [%]	Activity [13] [%]	Activity [14] [%]	Activity [15] [%]	Activity [16] [%]	Activity [17] [%]	Activity [18] [%]	Activity [19] [%]	Activity [20] [%]	Activity [21] [%]	other results
CCC[C@@H](O)c1c(/C=C/[C@@H](O)[C@@H](O)CCCC(=O)OC)nc(C)n1C	85.7	75.1	85.8	84.8	87.1	114	108	90.1	72.7	86.2	68	128	120	55.8	82.4	120	61.7	89.5	69.3	79.7	Activity [7]: 1.1%; Activity [22]: 116%; Activity [23]: 55.4%
COC(=O)CCC[C@H](O)[C@H](O)/C=C/c1nc(C)n(C)c1[C@@H](C)O	96.4	62.8	81.9	75.2	80.9	121	112	88.7	92.5	83.3	172	106	109	79.8	78.5	107	2.6	121	79.6	96.1	Activity [22]: 136%; Activity [23]: 109%
CCCCC[C@H](O)c1nc(-c2ccccc2)oc1/C=C/[C@@H](O)[C@@H](O)CCCC(=O)OC(C)C	75.8	63.5	77.2	90.1	79.9	75.7	70.7	83.7	82.3	75.8	72.3	74.8	98.4	66.6	81	75	53.6	79.5	42.6	70.9	Activity [24]: Active; Activity [22]: 81.2%; Activity [23]: 50.1%

Calls of active or inactive are those of the source. The rule behind the calls is not given here.
